Measured values as given in patent US20090253634A1, “Methods and Compositions for the Treatment of Gastrointestinal Disorders” (MICROBIA, INC., priority 2005, published 2009).

Test system: carboxypeptidase A
Assay: in vitro proteolytic stability: carboxypeptidase A

N-CBZ-Glycine-Glycine-Leucine [Z-Gly-Gly-Leu, reference compound]
average calculated concentration of Z-Gly-Gly-Leu (T0 control and T0 samples): 7.1 (+/0.30) μg/mL
calculated concentration of the Z-Gly-Gly-Leu products (T3 h and T24 h samples): 2.2 (+/−0.10) μg/mL
precursor mass of Z-Gly-Gly-Leu (T3 h and T24 h samples): No precursor mass was detected
